Assay [1] has as its target T1, hVEGF109 (human, UniProt P15692-4 34-135, limits assumed).
T1 construct: Numbers count on the mature 165-amino acid VEGF, not on the precursor; also called human VEGF (hVEGF 109)
Nature of the assay: phage competition ELISA (phage IC50), hVEGF109, VEGF inferred.

For assay [2], the target named is T2, His-tagged human Ang2 (hAng2his8) (human, UniProt O15123 19-496, limits assumed).
T2 construct: neither is tied to this construct; not shown: His tag (his8)
T2 sequence (looked up): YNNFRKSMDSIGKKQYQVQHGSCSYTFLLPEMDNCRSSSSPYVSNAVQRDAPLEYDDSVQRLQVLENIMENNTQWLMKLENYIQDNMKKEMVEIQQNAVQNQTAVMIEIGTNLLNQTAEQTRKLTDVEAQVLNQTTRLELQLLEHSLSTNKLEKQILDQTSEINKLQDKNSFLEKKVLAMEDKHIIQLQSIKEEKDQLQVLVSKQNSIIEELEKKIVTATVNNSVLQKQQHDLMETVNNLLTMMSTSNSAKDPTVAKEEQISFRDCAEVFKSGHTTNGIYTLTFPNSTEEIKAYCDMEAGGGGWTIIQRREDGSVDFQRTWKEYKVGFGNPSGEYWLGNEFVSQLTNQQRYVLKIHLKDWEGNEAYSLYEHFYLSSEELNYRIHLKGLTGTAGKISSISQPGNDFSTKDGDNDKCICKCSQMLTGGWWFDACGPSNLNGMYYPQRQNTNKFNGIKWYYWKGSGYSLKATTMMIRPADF
Nature of the assay: phage competition ELISA (phage IC50), hAng2his8, Ang2 inferred.

The target of assay [3] is T1, hVEGF109. Nature of the assay: phage competition ELISA (phage IC50), hVEGF109 in solution and on the plate, VEGF inferred.
The target in assay [4] is T2, His-tagged human Ang2 (hAng2his8). Nature of the assay: phage competition ELISA (phage IC50), hAng2his8 in solution and on the plate, Ang2 inferred. On the technique in general: ELISA stands for enzyme-linked immunosorbent assay.

B1: 5A12 4.2 HC.T52D (Fab, V domains shown)
VH: EVQLVESGGGLVQPGGSLRLSCAASGFTISDYWIHWVRQAPGKGLEWVAGIDPAGGYTYYADSVKGRFTISADTSKNTAYLQMNSLRAEDTAVYYCARFVFFLPYAMDYWGQGTLVTVSS
VL: DIQMTQSPSSLSASVGDRVTITCRASQFLSSFGVAWYQQKPGKAPKLLIYGASSLYSGVPSRFSGSGSGTDFTLTISSLQPEDFATYYCQQGLLSPLTFGQGTKVEIK
In general, IC50 refers to the midpoint of a concentration-inhibition curve. Turning to B1, the entries for the “fold change of phage IC50 against 5A12 4.2” value (“fold change of phage IC50” below) in assay [1] and in assay [2] were 0.05 fold and 86.2 fold, respectively. In addition, the IC50 in assay [3] came out at 39.5 nM; in assay [4] it was 0.08 nM.

B2: 5A12 4.2 HC.Y100aW (Fab, V domains shown)
VH: EVQLVESGGGLVQPGGSLRLSCAASGFTISDYWIHWVRQAPGKGLEWVAGITPAGGYTYYADSVKGRFTISADTSKNTAYLQMNSLRAEDTAVYYCARFVFFLPWAMDYWGQGTLVTVSS
VL: DIQMTQSPSSLSASVGDRVTITCRASQFLSSFGVAWYQQKPGKAPKLLIYGASSLYSGVPSRFSGSGSGTDFTLTISSLQPEDFATYYCQQGLLSPLTFGQGTKVEIK
For the molecule B2, the “fold change of phage IC50” value turned out to be 9.38 fold in assay [1] and 0.06 fold in assay [2]. The IC50 is 0.21 nM in assay [3] and 115 nM in assay [4].

B3: 5A12 4.2 HC.A100bT (Fab, V domains shown)
VH: EVQLVESGGGLVQPGGSLRLSCAASGFTISDYWIHWVRQAPGKGLEWVAGITPAGGYTYYADSVKGRFTISADTSKNTAYLQMNSLRAEDTAVYYCARFVFFLPYTMDYWGQGTLVTVSS
VL: DIQMTQSPSSLSASVGDRVTITCRASQFLSSFGVAWYQQKPGKAPKLLIYGASSLYSGVPSRFSGSGSGTDFTLTISSLQPEDFATYYCQQGLLSPLTFGQGTKVEIK
As to B3, the “fold change of phage IC50” value in assay [1] was found to be 4.02 fold; in assay [2], 0.1 fold. Also, the IC50 was determined as 0.49 nM in assay [3] and 69 nM in assay [4].

B4: 5A12 4.2 HC.A100bV (Fab, V domains shown)
VH: EVQLVESGGGLVQPGGSLRLSCAASGFTISDYWIHWVRQAPGKGLEWVAGITPAGGYTYYADSVKGRFTISADTSKNTAYLQMNSLRAEDTAVYYCARFVFFLPYVMDYWGQGTLVTVSS
VL: DIQMTQSPSSLSASVGDRVTITCRASQFLSSFGVAWYQQKPGKAPKLLIYGASSLYSGVPSRFSGSGSGTDFTLTISSLQPEDFATYYCQQGLLSPLTFGQGTKVEIK
With B4, the “fold change of phage IC50” value is 19.7 fold in assay [1] and 0.05 fold in assay [2]. Also, the half-inhibitory concentration (IC50) in assay [3] was determined as 0.1 nM; in assay [4], 137 nM.

B5: 5A12 4.2 HC.A100bS (Fab, V domains shown)
VH: EVQLVESGGGLVQPGGSLRLSCAASGFTISDYWIHWVRQAPGKGLEWVAGITPAGGYTYYADSVKGRFTISADTSKNTAYLQMNSLRAEDTAVYYCARFVFFLPYSMDYWGQGTLVTVSS
VL: DIQMTQSPSSLSASVGDRVTITCRASQFLSSFGVAWYQQKPGKAPKLLIYGASSLYSGVPSRFSGSGSGTDFTLTISSLQPEDFATYYCQQGLLSPLTFGQGTKVEIK
Regarding B5, the entries for the “fold change of phage IC50” value in assay [1] and in assay [2] were 1.64 fold and 0.1 fold, respectively. Further, the IC50 came to 1.2 nM in assay [3] and 71.4 nM in assay [4].

B6: 5A12 4.2 HC.G54E (Fab, V domains shown)
VH: EVQLVESGGGLVQPGGSLRLSCAASGFTISDYWIHWVRQAPGKGLEWVAGITPAEGYTYYADSVKGRFTISADTSKNTAYLQMNSLRAEDTAVYYCARFVFFLPYAMDYWGQGTLVTVSS
VL: DIQMTQSPSSLSASVGDRVTITCRASQFLSSFGVAWYQQKPGKAPKLLIYGASSLYSGVPSRFSGSGSGTDFTLTISSLQPEDFATYYCQQGLLSPLTFGQGTKVEIK
Regarding B6, the “fold change of phage IC50” value came to 0.08 fold in assay [1] and 16.1 fold in assay [2]. The IC50 in assay [3] stood at 24.2 nM; in assay [4], 0.43 nM.

The record behind these values is patent publication WO2016073157A1 (dated 2016).
